Reference: patent publication US20220226434A1

Target: UNC5B receptor on mouse bone marrow monocytes (mouse) (UniProt Q8K1S3)
Assay: cell-based or functional assay

“Mouse recombinant netrin-1 (from UniProt O09118 25-604) (ligand)” was tested, and the inhibition of monocyte adhesion (monocyte-EC adhesion assay, calcein AM) was 23%.
